Settings: pure water

Substance	solubility
NPYHPTIPQSVH-GGGK-biotin [peptide 3]	low solubility
NPYAPTIPQSVA-GGGK-biotin [peptide 4]	low solubility
APYHPTIPASVH-GGGK-biotin [peptide 5]	low solubility
